Assay outcomes: PubChem BioAssay, National Center for Advancing Translational Sciences (NCATS)
TDP1 cell CPT = growth inhibition of DT40 Tdp1-/-;hTDP1 cells with camptothecin (screen for TDP1 inhibitors). chicken DT40 Tdp1-/-;hTDP1 cells + 20 nM CPT, ATP luminescence, 48 h. Potency, µM (doses to about 46.2 µM), inactives show at the highest dose activity change, negative = growth inhibition, usual class: inhibitors. hit rate 12% among 420,000. AID 686979; also: potency is read from the fitted curve at half-maximal effect; % is scaled to controls: 0 for no effect and ±100 for the full control effect; nearly all actives have a fitted effect of over 55% in size
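Chicken DT40 Tdp1-/- cells stably complemented with human TDP1 were seeded at 400 cells/well in medium containing 20 nM camptothecin, exposed to pin-transferred compounds, and grown at 37 °C for at least 48 hr. Viability was read as ATP luminescence.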
miR-21 reporter = raises the signal of a miR-21 reporter; AID 2288; 340,000 tested, under 10 active; Potency, µM (doses to about 38.3 µM), inactives show at the top dose reporter change, positive = more light; HeLa miR-21 FLuc reporter, luciferase, 48 h; active = well fitted rising curve with a large enough effect; inconclusive = small, poorly fitted or top-dose-only effect; inactive = no such curve, though single readings can be large or run the other way;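 note: % of control where 0% means no effect; miR-21 action dims this reporter so a rising signal means less miR-21 action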
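Compounds were titrated across several concentrations (up to approximately 40 uM) and incubated 48 hours with HeLa miR-21-FLuc reporter cells (miR-21 target sequence downstream of FLuc, endogenous miR-21). Readout was firefly luciferase luminescence after lytic detection reagent.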
TDP1 block = blocks human tyrosyl-DNA phosphodiesterase 1; Q9NUW8; recombinant TDP1, AlphaScreen DNA substrate cleavage; Potency, µM (titrated, usually from 130 µM), for inactives: top-dose activity change, negative = inhibition, hits mostly inhibitors; hit rate 0.28% among 350,000; also: potency is read from the fitted curve at half-maximal effect; % is scaled to controls: 0 for no effect and ±100 for the full control effect; nearly all actives have a fitted effect of over 40% in size
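Signal: AlphaScreen proximity between streptavidin donor and anti-FITC acceptor beads on intact substrate. Reaction: Tdp1 1 nM, substrate 15 nM final, 5 min RT after 15 min compound preincubation.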
uPA generation = blocks generation of uPA at the cell surface; cell surface uPA generation assay, qHTS; Potency, µM (series often up to 38.3 µM), for inactives: at the highest dose activity change, negative = inhibition, most hits filed as inhibitors; hit rate 0.31% among 330,000; active = well fitted inhibition curve with a large enough effect; inconclusive = small, poorly fitted or top-dose-only effect; inactive = no such curve, though single readings can be large or run the other way; tested in mouse RAW 264.7 cells; also: potency is read from the fitted curve at half-maximal effect; % is scaled to controls: 0 for no effect and ±100 for the full control effect; nearly all actives have a fitted effect of over 55% in size
DT40 TDP1 no CPT = qHTS for Inhibitors of human tyrosyl-DNA phosphodiesterase 1 (TDP1): qHTS in cells in absence of CPT | DT40 Tdp1-/- hTDP1 cells, no CPT, ATP luminescence, 48 h | Potency, µM (top dose mostly 46.2 µM), for inactives: top-dose activity change, negative = growth inhibition, most hits filed as inhibitors | hit rate 15% among 420,000; also: potency is read from the fitted curve at half-maximal effect; % is scaled to controls: 0 for no effect and ±100 for the full control effect; nearly all actives have a fitted effect of over 55% in size
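DT40 Tdp1-/-;hTDP1 cells, no CPT (DMSO vehicle only), 400 cells/well; compounds pin-transferred; ≥48 hr, 37 °C; CellTiter-Glo 30 min RT dark, luminescence read.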
* marks the source's active call; other numbers are inactive results; ! = not active in a repeat; [ ] = remark or other dose. Most compounds without a hit are left out; they make up all but 16% or so of the library. Unless noted, calls follow the shape of the dose curve; as a rule, active = well fitted curve in the direction sought with a large enough effect; inconclusive = small, poorly fitted or top-dose-only effect, or another doubt; inactive = no such curve, though single readings can be large; an effect the other way counts as inactive or inconclusive.

How did CC1CCCN(C(=O)COC(=O)/C=C/c2ccc(C(F)(F)F)cc2)C1 (configuration not stated) do in these assays?
TDP1 cell CPT: -22%; TDP1 block: -1%[56.1 µM]; uPA generation: -15%; DT40 TDP1 no CPT: inconclusive

Results for O=C(NNS(=O)(=O)c1ccccc1)c1ccccc1-n1cccc1 ?
TDP1 cell CPT: -4%; miR-21 reporter: 0%; TDP1 block: 0%; uPA generation: 1%; DT40 TDP1 no CPT: 24%

Results for O=C(Nc1ccc(-c2nc3ccccc3o2)c(O)c1)c1ccccc1 ?
TDP1 cell CPT: inconclusive; miR-21 reporter: -56%; TDP1 block: 5%; DT40 TDP1 no CPT: 18µM*

How did O=C(Nc1ccc2oc(-c3ccncc3)nc2c1)c1c(F)c(F)c(F)c(F)c1F do in these assays?
TDP1 cell CPT: 0.73µM*; miR-21 reporter: -9%; TDP1 block: 2%; uPA generation: -6%; DT40 TDP1 no CPT: 1.5µM*

What do the screens show for `O=C(Nc1ccc2oc(-c3ccncc3)nc2c1)c1ccc(F)cc1`?
TDP1 cell CPT: -3%; miR-21 reporter: -7%; TDP1 block: 79µM*; uPA generation: 0%; DT40 TDP1 no CPT: -20%

How did Cc1cc2nc(-c3ccc(NC(=O)c4ccccc4F)cc3)oc2cc1C do in these assays?
TDP1 cell CPT: inconclusive; miR-21 reporter: -37%; TDP1 block: 3%[12.3 µM]; DT40 TDP1 no CPT: 8.2µM*

How did CC(C)(C)c1ccc(C(=O)Nc2ccc(-c3nc4ccccc4o3)c(O)c2)cc1 do in these assays?
TDP1 cell CPT: 5%; miR-21 reporter: 0%; TDP1 block: -7%[12.3 µM]; DT40 TDP1 no CPT: -17%

What do the screens show for `NS(=O)(=O)c1ccc(S(=O)(=O)N2CCN(C3CCCC3)CC2)cc1`?
TDP1 cell CPT: -8%; miR-21 reporter: 1%; TDP1 block: 13%; uPA generation: 5%; DT40 TDP1 no CPT: -15%

Results for O=C(NCC(c1ccco1)N1CCN(c2ccc(F)cc2)CC1)C(=O)NC1CCCC1 (configuration not stated) ?
TDP1 cell CPT: inconclusive; TDP1 block: 1%; uPA generation: 15%; DT40 TDP1 no CPT: inconclusive

How did COc1ccc(Cn2ccnc2SCC(=O)Nc2nc3ccccc3s2)cc1 do in these assays?
TDP1 cell CPT: inconclusive; miR-21 reporter: 2%; TDP1 block: 14%; DT40 TDP1 no CPT: inconclusive

For reference, some entries already given.
How did CC1CCCN(C(=O)COC(=O)/C=C/c2ccc(C(F)(F)F)cc2)C1 (configuration not stated) do in these assays?
TDP1 cell CPT: -22%; TDP1 block: -1%[56.1 µM]; uPA generation: -15%; DT40 TDP1 no CPT: inconclusive

Results for O=C(NNS(=O)(=O)c1ccccc1)c1ccccc1-n1cccc1 ?
TDP1 cell CPT: -4%; miR-21 reporter: 0%; TDP1 block: 0%; uPA generation: 1%; DT40 TDP1 no CPT: 24%

Further structures.
Results for O[C@@H]([C@H](O)[C@H](O)CBr)[C@H](O)CBr ?
TDP1 cell CPT: 18µM*!; TDP1 block: -2%; uPA generation: 6%; DT40 TDP1 no CPT: 12µM*!

What do the screens show for `O[C@@H]([C@H](O)[C@@H](O)CBr)[C@@H](O)CBr`?
TDP1 block: 10%

How did Nc1cc(=O)[nH]c(=O)n1CC1CC1 do in these assays?
TDP1 cell CPT: 5%; miR-21 reporter: -2%; TDP1 block: -3%; uPA generation: 13%; DT40 TDP1 no CPT: 4%

What do the screens show for `O=C(NC1CCCCC1)c1ccccc1-c1ccccc1`?
TDP1 cell CPT: 7%; miR-21 reporter: 0%; TDP1 block: 5%; uPA generation: 0%; DT40 TDP1 no CPT: -11%

How did O=C(NC1CCCCC1)c1nc(-c2c(F)cccc2F)oc1-c1ccccc1 do in these assays?
TDP1 cell CPT: 23µM*; DT40 TDP1 no CPT: 26µM*

How did COc1cccc(-c2nnc3sc(CN4CCCCC4)cn23)c1 do in these assays?
TDP1 cell CPT: 1.2µM*; miR-21 reporter: 14%; TDP1 block: 2%; DT40 TDP1 no CPT: 1.3µM*

How did c1ccc(-c2nnc3sc(CN4CCc5ccccc54)cn23)cc1 do in these assays?
TDP1 cell CPT: 21µM*; miR-21 reporter: -5%; TDP1 block: -2%; uPA generation: inconclusive; DT40 TDP1 no CPT: inconclusive

Results for Brc1ccc(-c2nnc3sc(CN4CCc5ccccc5C4)cn23)cc1 ?
TDP1 cell CPT: -3%; uPA generation: 4%; DT40 TDP1 no CPT: 9%

How did Cc1noc(C)c1S(=O)(=O)Nc1ccc2c(c1)C(=O)N([C@H](C)CO)C[C@H](C)[C@@H](CN(C)C(=O)Nc1ccc(C(F)(F)F)cc1)O2 do in these assays?
TDP1 cell CPT: 1%; TDP1 block: 1%; uPA generation: 7%; DT40 TDP1 no CPT: -12%

Results for OC1CCCN(c2c3c(nc4cc(-c5cccc(F)c5)nn24)CCCC3)C1 (configuration not stated) ?
TDP1 cell CPT: 23µM*; miR-21 reporter: -61%; TDP1 block: 2%; uPA generation: 6%; DT40 TDP1 no CPT: inconclusive

Overlap with the part before: two entries, followed by the next part.
How did Cc1noc(C)c1S(=O)(=O)Nc1ccc2c(c1)C(=O)N([C@H](C)CO)C[C@H](C)[C@@H](CN(C)C(=O)Nc1ccc(C(F)(F)F)cc1)O2 do in these assays?
TDP1 cell CPT: 1%; TDP1 block: 1%; uPA generation: 7%; DT40 TDP1 no CPT: -12%

Results for OC1CCCN(c2c3c(nc4cc(-c5cccc(F)c5)nn24)CCCC3)C1 (configuration not stated) ?
TDP1 cell CPT: 23µM*; miR-21 reporter: -61%; TDP1 block: 2%; uPA generation: 6%; DT40 TDP1 no CPT: inconclusive

How did COCCN1CCN(c2c3c(nc4cc(-c5cccc(F)c5)nn24)CCC3)CC1 do in these assays?
TDP1 cell CPT: inconclusive; miR-21 reporter: -11%; TDP1 block: 2%; uPA generation: -4%; DT40 TDP1 no CPT: 23µM*

How did O=c1c2c(nc3cc(-c4cccc(F)c4)[nH]n13)CCC2 do in these assays?
TDP1 cell CPT: -3%; miR-21 reporter: -58%; TDP1 block: 2%; uPA generation: 3%; DT40 TDP1 no CPT: inconclusive

Results for OC1CCCN(c2c3c(nc4cc(-c5cccc(Cl)c5)nn24)CCC3)C1 (configuration not stated) ?
TDP1 cell CPT: 18µM*; miR-21 reporter: -21%; TDP1 block: -2%; uPA generation: 6%; DT40 TDP1 no CPT: inconclusive

Results for CN(C)CCCNc1c2c(nc3cc(-c4cccc(F)c4)nn13)CCC2 ?
TDP1 cell CPT: 19%; miR-21 reporter: -7%; TDP1 block: 5%; uPA generation: -2%; DT40 TDP1 no CPT: 9%

What do the screens show for `Cc1cccc(-c2cc3nc4c(c(N5CCCC(O)C5)n3n2)CCC4)c1` (configuration not stated)?
TDP1 cell CPT: inconclusive; miR-21 reporter: -3%; TDP1 block: 0%; uPA generation: 10%; DT40 TDP1 no CPT: 26µM*

Results for COc1cccc(-c2cc3nc(-c4ccccc4)cc(N4CCCC(O)C4)n3n2)c1 (configuration not stated) ?
TDP1 cell CPT: inconclusive; miR-21 reporter: 16%; TDP1 block: -5%; uPA generation: -64%; DT40 TDP1 no CPT: inconclusive

What do the screens show for `O=C1c2ccccc2N2C(=O)c3ccccc3[C@H]2N1c1ccccc1`?
TDP1 cell CPT: 16µM*; miR-21 reporter: 11%; TDP1 block: -1%; uPA generation: 0%; DT40 TDP1 no CPT: 18µM*

Results for Cc1cccc(OCCCC(=O)NNC(=O)CCN2CCN(c3ccccc3)CC2)c1 ?
TDP1 cell CPT: inconclusive; TDP1 block: -3%; uPA generation: 0%; DT40 TDP1 no CPT: inconclusive

How did CC1CCc2c(sc(NC(=O)CCc3nc4ccccc4c(=O)[nH]3)c2C#N)C1 (configuration not stated) do in these assays?
TDP1 cell CPT: 16µM*; TDP1 block: -10%; uPA generation: 5%; DT40 TDP1 no CPT: 18µM*
